scFv variants of Ab-95 (light chain) against a SARS-CoV-2 spike peptide

Target: peptide PDVDLGDISGINAS, taken from heptad repeat 2 (HR2) of SARS-CoV-2 spike.

Each scFv is VH, three GGGGS repeats, VL, as in the parent Ab-95, and differs from it in the CDRs of the light chain only.
VH: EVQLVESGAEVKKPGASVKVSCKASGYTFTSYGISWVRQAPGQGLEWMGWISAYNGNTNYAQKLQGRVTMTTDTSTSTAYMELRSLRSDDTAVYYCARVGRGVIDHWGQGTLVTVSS
VL: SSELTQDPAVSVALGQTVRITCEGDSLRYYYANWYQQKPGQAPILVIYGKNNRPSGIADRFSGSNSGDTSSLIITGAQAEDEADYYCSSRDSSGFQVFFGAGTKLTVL

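The starting antibody came from a phage panning campaign against this peptide. Library AAYL52 holds single substitutions and randomly drawn double and triple substitutions in the CDRs. Affinity was read by AlphaSeq, a pooled yeast mating assay with surface-displayed partners. Binding brings cells together so that they mate, and sequencing counts the barcode pairs among the diploids. Read counts were normalised to the haploid input and turned into Kd by a linear fit to BCL2-family pairs of known affinity, for each replicate. There are three technical replicates.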

The parent's light chain CDRs are EGDSLRYYYAN, GKNNRPS, SSRDSSGFQVF; each variant's own CDRs replace them letter for letter.
Scale: log10 of Kd in nM, estimated from mating counts; low values are strong binders.
Averages over replicates are reported, and they cover detected replicates only.
An entry "nd" has no value in the source: the pair was not observed among the diploids in that replicate. This suggests poor binding but is not conclusive.
As a blank, each scFv also met three strains without target: over library AAYL52, 28% of these pairings were detected, typically at 3.91 and seldom below 2.90. For each scFv, signals with the empty controls are counted beside the result, with their mean in brackets.

CDR-L1 | CDR-L2 | CDR-L3 | log10 Kd, replicates | mean, log10 nM | signal with controls
CGYSLVYYYAN | GKNNRPS | SSRDSSGFQVF | nd nd nd | nd | 3 of 9 (3.43)
ERDSLVYYYAN | GKNNRPS | SSRDSSGFQVW | 3.15 nd 4.67 | 3.91 | 7 of 9 (4.02)
RGDLLRYYYAN | GKNNRPS | SSRDSSYFQVF | 3.84 3.27 nd | 3.55 | 4 of 9 (3.98)
EDDSLRYYYAN | GKNNRPS | SSRDSSGGQVF | 3.85 2.98 2.26 | 3.03 | 3 of 9 (3.67)
ELDSHRYYYAN | GKNNRPS | SSRDSSGFQVF | 3.53 2.89 1.91 | 2.77 | 6 of 9 (3.88)
EGDSNRYYYRN | GKNNRPF | SSRDSSGFQVF | 3.08 3.19 4.42 | 3.56 | 4 of 9 (3.63)
EGDTLRYYYAN | GKNNEPS | SSRDSSGFQVF | 4.13 3.65 4.59 | 4.13 | 3 of 9 (4.64)
EGDSMRYYYKN | GKNNRPS | SSRDSSGFQVF | 3.68 3.88 2.73 | 3.43 | 7 of 9 (4.13)
EGDSFRQYYAT | GKNNRPS | SSRDSSGFQVF | 4.20 nd nd | 4.20 | 0 of 9
EGDSDRYYYAN | VKNNRPS | SSFDSSGFQVF | 4.04 nd nd | 4.04 | 1 of 9 (3.26)
EGDSIRYYYAN | GKNNRMS | SSRDSSGFQVF | 4.55 nd 3.58 | 4.07 | 2 of 9 (2.58)
EGLSLRYYYAN | GKNNCPS | SSRDSTGFQVF | 4.46 nd nd | 4.46 | 1 of 9 (4.22)
EGDSLRYYYAN | GKNNRPS | SSCDSVGFQVG | 5.09 3.66 nd | 4.38 | 3 of 9 (4.29)
EGDELDYYYAN | GKNNRMS | SSRDSSGFQVF | 2.90 2.46 2.44 | 2.60 | 4 of 9 (4.00)
EGDSLRYYYAN | GKNNMPS | KSRDSSGFQYF | 3.54 4.13 nd | 3.83 | 5 of 9 (4.27)
EGDSLRYYYAS | GKNNQPS | SSRDSSPFQVF | 5.26 4.12 3.55 | 4.31 | 2 of 9 (4.77)
EGDSLRRYYAN | QKNNRPS | SSRDSSGFQFF | 4.21 nd nd | 4.21 | 1 of 9 (3.84)

Further variants, results first:

log10 Kd, replicates | mean, log10 nM | signal with controls | CDR-L1 | CDR-L2 | CDR-L3
3.33 3.06 4.69 | 3.69 | 5 of 9 (3.84) | EGDSFFYYYAN | GKNNRPS | SSRDSSGFQRF
2.50 2.47 2.01 | 2.33 | 6 of 9 (4.19) | EGRSLRYYYAN | GKNNRPS | SSRDTSGFQVS
2.08 1.80 1.87 | 1.92 | 2 of 9 (3.46) | EGDSLRYYYAN | GKNQRMS | SSRDYSGFQVF
3.24 nd nd | 3.24 | 1 of 9 (4.04) | EGDSLRYYYAA | GKNNRPS | SSRDTSGFQFF
nd nd nd | nd | 0 of 9 | EGDSLRYYYAN | GKNNPSS | SSYDSSGFQVF
3.00 3.35 3.09 | 3.15 | 2 of 9 (4.57) | EGGSLRYYYAN | GSNNRPS | SQRDSSGFQVF
2.90 2.80 2.85 | 2.85 | 2 of 9 (4.67) | MGDSLRYYYAN | GKNNRPA | SSRDSSGFQVE
4.14 nd nd | 4.14 | 4 of 9 (4.09) | EGDSLRYYYAN | GKNNEPS | SSRDASGFKVF
2.97 3.02 nd | 2.99 | 0 of 9 | EVDSLRYAYAN | GKNNRPS | SSRDSSGFQVI
5.29 2.78 nd | 4.03 | 0 of 9 | EGDILRYYYAN | NPNNRPS | SSRDSSGFQVF
3.68 5.25 nd | 4.46 | 4 of 9 (3.88) | EGDSLRYYYAN | GKNNKIS | SSDDSSGFQVF
3.40 3.19 nd | 3.29 | 0 of 9 | EGMWLRYYYAN | GTNNRPS | SSRDSSGFQVF
3.75 2.89 2.68 | 3.11 | 1 of 9 (3.87) | EGKSLRYYYHN | GKNNRPS | SSRDSSGFLVF
3.87 4.13 nd | 4.00 | 6 of 9 (3.87) | EHDSLRYYYAN | GVANRPS | SSRDSSGFQVF
2.08 2.40 2.29 | 2.26 | 3 of 9 (3.62) | EGDSLRYYAPR | GKNNRPS | SSRDSSGFQVF
2.84 4.08 4.48 | 3.80 | 0 of 9 | EGDSLRYYYAN | GKNKRPS | SSRDVSFFQVF
nd nd nd | nd | 0 of 9 | EGDSLRYYYAN | GKNNRPS | GSRISSGFQTF
2.84 2.46 3.48 | 2.93 | 2 of 9 (3.28) | EGNSLRYYYAN | GKNNRPS | SSQDSHGFQVF

The first 3 variants above that were never detected:

{"CDR-L1": "CGYSLVYYYAN", "CDR-L2": "GKNNRPS", "CDR-L3": "SSRDSSGFQVF", "log10 Kd, replicates": "nd nd nd", "mean, log10 nM": "nd", "signal with controls": "3 of 9 (3.43)"}
{"CDR-L1": "EGDSLRYYYAN", "CDR-L2": "GKNNPSS", "CDR-L3": "SSYDSSGFQVF", "log10 Kd, replicates": "nd nd nd", "mean, log10 nM": "nd", "signal with controls": "0 of 9"}
{"CDR-L1": "EGDSLRYYYAN", "CDR-L2": "GKNNRPS", "CDR-L3": "GSRISSGFQTF", "log10 Kd, replicates": "nd nd nd", "mean, log10 nM": "nd", "signal with controls": "0 of 9"}

Reference: Engelhart et al. 2022, doi:10.1038/s41597-022-01779-4. File: FLAb, binding data.